Measured values taken from CN113603779A.

Sequences of proteins named here, by UniProt entry; tags and fusion partners are left off. A change or cut given only in a name is not applied to a line headed by its entry. Residues count along the entry.
UniProt P18627, 23-450 limits assumed: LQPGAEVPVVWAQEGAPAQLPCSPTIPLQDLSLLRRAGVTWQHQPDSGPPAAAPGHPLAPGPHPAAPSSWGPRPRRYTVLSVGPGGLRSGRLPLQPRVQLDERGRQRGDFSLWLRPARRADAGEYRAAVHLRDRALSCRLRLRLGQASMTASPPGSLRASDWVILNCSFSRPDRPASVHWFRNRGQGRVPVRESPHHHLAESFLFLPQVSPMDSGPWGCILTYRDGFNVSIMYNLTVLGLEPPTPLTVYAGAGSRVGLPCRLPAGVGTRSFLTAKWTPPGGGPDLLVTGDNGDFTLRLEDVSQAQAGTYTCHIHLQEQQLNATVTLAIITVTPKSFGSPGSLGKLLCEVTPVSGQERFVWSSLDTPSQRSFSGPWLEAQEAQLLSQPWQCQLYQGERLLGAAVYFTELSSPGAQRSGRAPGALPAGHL

Biological target: 人LAG-3抗原(北京义翘神州生物技术有限公司，货号:16498-H08H) (human) (UniProt P18627)
Experiment: ELISA, human LAG-3 antigen coated, goat anti-human IgG-HRP

An EC50 of 0.093 µg/mL was found for 瑞拉利单抗(Relatlimab) (antibody) in this work.
